We go through seven compounds from PubChem BioAssay (Tox21).

Chains of the proteins cited; added tags and fusions are not shown. Lines headed by an entry give the natural chain unless they say otherwise; changes in a name come on top.
UniProt P06401: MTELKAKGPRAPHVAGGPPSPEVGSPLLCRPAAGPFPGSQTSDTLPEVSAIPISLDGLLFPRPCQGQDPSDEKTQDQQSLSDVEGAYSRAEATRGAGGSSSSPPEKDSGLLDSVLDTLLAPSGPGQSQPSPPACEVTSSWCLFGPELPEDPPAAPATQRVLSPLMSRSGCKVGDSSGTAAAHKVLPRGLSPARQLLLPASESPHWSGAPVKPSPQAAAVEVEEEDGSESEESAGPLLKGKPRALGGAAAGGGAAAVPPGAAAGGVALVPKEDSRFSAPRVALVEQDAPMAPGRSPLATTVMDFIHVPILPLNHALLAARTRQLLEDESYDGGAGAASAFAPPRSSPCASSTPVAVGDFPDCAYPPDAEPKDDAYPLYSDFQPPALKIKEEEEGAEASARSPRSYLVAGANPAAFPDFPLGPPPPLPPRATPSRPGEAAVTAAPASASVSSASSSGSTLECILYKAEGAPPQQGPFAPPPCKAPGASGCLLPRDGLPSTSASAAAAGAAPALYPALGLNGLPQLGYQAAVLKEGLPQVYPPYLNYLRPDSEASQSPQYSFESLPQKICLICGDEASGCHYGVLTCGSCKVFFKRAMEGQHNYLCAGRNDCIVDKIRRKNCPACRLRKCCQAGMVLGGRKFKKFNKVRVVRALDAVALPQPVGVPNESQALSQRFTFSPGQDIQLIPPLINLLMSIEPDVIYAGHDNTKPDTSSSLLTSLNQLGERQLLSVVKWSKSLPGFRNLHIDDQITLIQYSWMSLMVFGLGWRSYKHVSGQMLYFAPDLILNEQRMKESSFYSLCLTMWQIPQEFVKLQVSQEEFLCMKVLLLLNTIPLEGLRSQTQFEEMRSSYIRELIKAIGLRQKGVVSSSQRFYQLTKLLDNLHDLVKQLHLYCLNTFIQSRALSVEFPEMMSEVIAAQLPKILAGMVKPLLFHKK
UniProt P34981: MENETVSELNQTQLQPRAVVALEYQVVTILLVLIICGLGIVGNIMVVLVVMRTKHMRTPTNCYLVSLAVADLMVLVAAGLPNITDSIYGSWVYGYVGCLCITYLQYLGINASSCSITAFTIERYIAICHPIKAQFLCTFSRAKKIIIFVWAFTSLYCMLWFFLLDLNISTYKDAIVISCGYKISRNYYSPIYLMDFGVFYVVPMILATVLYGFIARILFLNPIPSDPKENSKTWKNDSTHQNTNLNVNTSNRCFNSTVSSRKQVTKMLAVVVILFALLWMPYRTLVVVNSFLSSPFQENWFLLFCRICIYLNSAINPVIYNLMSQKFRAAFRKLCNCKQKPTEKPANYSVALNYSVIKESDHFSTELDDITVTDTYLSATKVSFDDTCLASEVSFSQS
UniProt O75469: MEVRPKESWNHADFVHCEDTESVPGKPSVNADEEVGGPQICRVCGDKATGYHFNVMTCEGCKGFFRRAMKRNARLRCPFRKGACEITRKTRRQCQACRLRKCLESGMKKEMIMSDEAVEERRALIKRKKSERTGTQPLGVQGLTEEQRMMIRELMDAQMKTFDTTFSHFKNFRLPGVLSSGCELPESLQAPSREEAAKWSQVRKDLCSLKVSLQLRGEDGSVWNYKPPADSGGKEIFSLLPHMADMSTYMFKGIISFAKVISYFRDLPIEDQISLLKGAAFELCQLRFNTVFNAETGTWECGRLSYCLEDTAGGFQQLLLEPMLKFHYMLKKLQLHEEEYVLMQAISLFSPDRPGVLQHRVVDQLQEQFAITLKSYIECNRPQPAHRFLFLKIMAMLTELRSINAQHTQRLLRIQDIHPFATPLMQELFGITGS
UniProt P22303: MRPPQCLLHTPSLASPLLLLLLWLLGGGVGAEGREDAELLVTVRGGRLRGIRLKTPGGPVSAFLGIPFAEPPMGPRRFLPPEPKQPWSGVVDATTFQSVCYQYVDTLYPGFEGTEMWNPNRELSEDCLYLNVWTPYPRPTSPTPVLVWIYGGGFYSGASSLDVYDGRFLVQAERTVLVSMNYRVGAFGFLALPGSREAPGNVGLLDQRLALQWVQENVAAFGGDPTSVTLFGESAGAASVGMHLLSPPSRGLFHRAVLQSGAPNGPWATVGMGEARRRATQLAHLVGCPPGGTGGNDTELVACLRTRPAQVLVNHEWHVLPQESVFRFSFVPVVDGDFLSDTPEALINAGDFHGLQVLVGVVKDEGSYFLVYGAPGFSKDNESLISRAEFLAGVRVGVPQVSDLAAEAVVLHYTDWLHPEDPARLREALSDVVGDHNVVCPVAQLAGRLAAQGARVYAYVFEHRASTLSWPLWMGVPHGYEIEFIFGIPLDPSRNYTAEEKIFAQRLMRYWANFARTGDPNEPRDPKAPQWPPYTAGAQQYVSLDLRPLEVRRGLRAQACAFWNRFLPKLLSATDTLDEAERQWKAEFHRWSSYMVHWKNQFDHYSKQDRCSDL
UniProt P33261, whole entry, looked up: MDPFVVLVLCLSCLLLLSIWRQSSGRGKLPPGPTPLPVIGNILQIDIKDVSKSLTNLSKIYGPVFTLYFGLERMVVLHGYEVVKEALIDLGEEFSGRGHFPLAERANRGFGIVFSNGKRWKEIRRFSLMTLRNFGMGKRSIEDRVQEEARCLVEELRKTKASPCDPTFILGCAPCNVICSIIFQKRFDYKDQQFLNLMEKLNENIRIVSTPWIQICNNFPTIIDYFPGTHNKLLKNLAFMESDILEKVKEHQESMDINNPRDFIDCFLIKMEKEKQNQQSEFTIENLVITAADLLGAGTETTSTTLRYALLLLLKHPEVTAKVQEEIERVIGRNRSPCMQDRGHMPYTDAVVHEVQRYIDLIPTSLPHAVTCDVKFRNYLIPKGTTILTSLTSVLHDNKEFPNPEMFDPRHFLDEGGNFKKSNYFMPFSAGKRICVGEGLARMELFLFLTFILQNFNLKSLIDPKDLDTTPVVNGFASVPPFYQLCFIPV
UniProt P11712, whole entry, looked up: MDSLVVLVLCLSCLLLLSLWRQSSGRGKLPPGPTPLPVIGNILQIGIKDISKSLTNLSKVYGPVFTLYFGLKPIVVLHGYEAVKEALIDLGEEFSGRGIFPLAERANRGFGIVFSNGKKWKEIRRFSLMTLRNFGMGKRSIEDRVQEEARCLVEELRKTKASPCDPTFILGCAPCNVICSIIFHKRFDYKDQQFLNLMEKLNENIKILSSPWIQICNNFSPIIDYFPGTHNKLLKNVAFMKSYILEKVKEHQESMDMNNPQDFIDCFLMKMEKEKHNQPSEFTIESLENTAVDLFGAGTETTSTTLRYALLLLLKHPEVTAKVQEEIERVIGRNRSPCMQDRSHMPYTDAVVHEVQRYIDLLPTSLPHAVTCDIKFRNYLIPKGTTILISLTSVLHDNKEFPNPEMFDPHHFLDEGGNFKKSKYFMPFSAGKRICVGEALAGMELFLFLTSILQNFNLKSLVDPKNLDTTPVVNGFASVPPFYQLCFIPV
UniProt P05177, whole entry, looked up: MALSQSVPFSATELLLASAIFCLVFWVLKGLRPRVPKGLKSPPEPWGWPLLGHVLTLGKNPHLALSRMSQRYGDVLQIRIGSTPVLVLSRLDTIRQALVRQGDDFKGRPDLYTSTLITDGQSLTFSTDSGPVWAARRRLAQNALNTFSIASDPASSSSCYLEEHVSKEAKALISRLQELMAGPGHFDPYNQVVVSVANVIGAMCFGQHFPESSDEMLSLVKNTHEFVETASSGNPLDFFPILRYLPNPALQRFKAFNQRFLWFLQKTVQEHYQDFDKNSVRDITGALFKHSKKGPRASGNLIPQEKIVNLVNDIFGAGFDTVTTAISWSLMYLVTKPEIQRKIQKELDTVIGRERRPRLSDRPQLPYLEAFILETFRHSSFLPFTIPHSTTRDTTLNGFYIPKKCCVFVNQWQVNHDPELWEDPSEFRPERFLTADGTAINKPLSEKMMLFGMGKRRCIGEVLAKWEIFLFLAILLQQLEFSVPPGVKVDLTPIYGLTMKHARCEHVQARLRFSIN
UniProt Q12809: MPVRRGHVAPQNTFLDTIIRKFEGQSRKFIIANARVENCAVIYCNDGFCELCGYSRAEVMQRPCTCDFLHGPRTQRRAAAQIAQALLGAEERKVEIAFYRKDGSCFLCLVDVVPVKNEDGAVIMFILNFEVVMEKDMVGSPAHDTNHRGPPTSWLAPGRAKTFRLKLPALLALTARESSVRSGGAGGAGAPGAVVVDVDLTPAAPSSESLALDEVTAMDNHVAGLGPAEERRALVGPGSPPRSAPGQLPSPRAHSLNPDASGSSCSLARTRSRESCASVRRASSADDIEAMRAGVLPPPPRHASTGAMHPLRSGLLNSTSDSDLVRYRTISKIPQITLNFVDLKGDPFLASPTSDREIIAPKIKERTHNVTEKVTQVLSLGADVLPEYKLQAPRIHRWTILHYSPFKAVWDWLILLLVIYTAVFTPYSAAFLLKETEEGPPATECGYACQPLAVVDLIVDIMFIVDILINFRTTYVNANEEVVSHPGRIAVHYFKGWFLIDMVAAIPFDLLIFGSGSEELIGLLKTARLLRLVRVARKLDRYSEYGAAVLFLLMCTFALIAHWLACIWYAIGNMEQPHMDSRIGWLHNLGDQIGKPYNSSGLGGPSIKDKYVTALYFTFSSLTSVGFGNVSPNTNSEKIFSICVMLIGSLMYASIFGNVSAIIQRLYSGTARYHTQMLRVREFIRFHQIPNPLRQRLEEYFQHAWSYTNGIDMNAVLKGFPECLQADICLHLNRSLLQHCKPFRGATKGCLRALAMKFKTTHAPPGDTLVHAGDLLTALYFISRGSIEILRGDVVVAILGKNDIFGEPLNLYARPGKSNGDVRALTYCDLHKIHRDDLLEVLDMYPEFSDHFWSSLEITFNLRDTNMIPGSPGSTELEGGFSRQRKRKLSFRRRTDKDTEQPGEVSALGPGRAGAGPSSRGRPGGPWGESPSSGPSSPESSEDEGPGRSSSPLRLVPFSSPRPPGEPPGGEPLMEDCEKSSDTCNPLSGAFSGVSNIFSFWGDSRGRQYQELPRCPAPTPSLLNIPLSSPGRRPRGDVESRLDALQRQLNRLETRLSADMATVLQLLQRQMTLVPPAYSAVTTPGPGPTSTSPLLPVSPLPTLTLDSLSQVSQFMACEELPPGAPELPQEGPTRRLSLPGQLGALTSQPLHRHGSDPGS

Experiment [1] in a line: qHTS assay to identify small molecule agonists of the estrogen receptor alpha (ER-alpha) signaling pathway in the presence of an antagonist - cell viability counter screen (AID 1259386).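 Further: cells exposed to compounds for 22 h at 37 °C before the viability read; on the % scale 0 is the no-effect control and ±100 the full control effect; nearly all actives have a fitted effect of over 30% in size.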 The procedure, abridged:
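VM7Luc4E2 cells (endogenous full-length ER-alpha, 4×ERE-luciferase) were held 5 days in phenol red-free medium with 10% charcoal-stripped FBS, plated, then given 10.0nM ICI-182,780 and compounds at 15 concentrations for 22hr at 37C; viability read by CellTiter-Fluor fluorescence.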
In general terms: In qHTS, concentration-response curves come from the screen itself.

For experiment [2], the target named is Progesterone receptor (Homo sapiens) (UniProt P06401). Put plainly: qHTS assay to identify small molecule agonists of the progesterone receptor (PR) signaling pathway (AID 1346784; calls by dose curve; further: on the % scale 0 is the no-effect control and ±100 the full control effect; nearly all actives have a fitted effect of over 30% in size). An outline of the steps:
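Compounds were tested for PR agonism in HEK 293T cells bearing a beta-lactamase gene under UAS control. Treatment lasted 16 hr at 37C; signal came from fluorescence of a FRET substrate.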

Experiment [3] has the same target. Put plainly: qHTS assay to identify small molecule antagonists of the progesterone receptor (PR) signaling pathway (AID 1346795; active means well fitted inhibition curve with a large enough effect in the signal ratio in the repeat runs, not every such curve was filed as active; the % refers to the signal ratio; further: on the % scale 0 is the no-effect control and ±100 the full control effect). The procedure, abridged:
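In HEK293T cells bearing the PR-UAS-bla reporter, compound effects on promegestone-driven (1 nM) beta-lactamase expression are assessed after 16 hr using a fluorescent FRET substrate incubated 2 hr at room temperature.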

Experiment [4] in a line: qHTS assay to identify small molecule antagonists of the progesterone receptor (PR) signaling pathway - cell viability counter screen (AID 1346798). Further: on the % scale 0 is the no-effect control and ±100 the full control effect; nearly all actives have a fitted effect of over 50% in size. An outline of the steps: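 Following a 4 hr attachment, PR-UAS-bla HEK293T cells in charcoal-stripped FBS medium were exposed to compounds with R5020 for 16 hr; CellTiter-Glo was added and luminescence read after 30 min at room temperature.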

Experiment [5] can be described thus: qHTS assay to identify small molecule agonists of the progesterone receptor (PR) signaling pathway - cell viability counter screen (AID 1346799; calls by dose curve; further: on the % scale 0 is the no-effect control and ±100 the full control effect; nearly all actives have a fitted effect of over 45% in size). The procedure, abridged:
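Here, 3,000 PR-UAS-bla HEK293T cells per well were treated with compounds for 16 hr after a 6 hr preincubation at 37C and 5% CO2; cell viability is the CellTiter-Glo luminescence signal.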

Experiment [6] is described as follows: qHTS assay to identify small molecule agonists of the TGF-beta/Smad signaling pathway - cell viability counter screen (AID 1346829). Further: top concentration of the series differs between compounds; on the % scale 0 is the no-effect control and ±100 the full control effect; nearly all actives have a fitted effect of over 45% in size. An outline of the steps: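 Compound-treated SBE-bla HEK 293T cells (5 hr, 37 C) were assessed for viability with CellTiter-Glo in parallel with the reporter read.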
Experiment [7] can be described thus: qHTS assay to identify small molecule agonists of the TGF-beta/Smad signaling pathway (AID 1346859; active means well fitted activation curve with a large enough effect in the signal ratio in the repeat runs, not every such curve was filed as active; the % refers to the signal ratio; further: on the % scale 0 is the no-effect control and ±100 the full control effect). The settings on record: SBE-bla HEK293T, TGF-beta/Smad beta-lactamase reporter, 5 h; at 76.8 µM (top of the series) unless noted. An outline of the steps:
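Each well held 4,000 SBE-bla HEK 293T cells incubated overnight before compound addition; 5 hr later the cleavable FRET substrate went on for 2 hr at room temperature, and fluorescence was read at two emissions.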

The target of experiment [8] is Thyrotropin-releasing hormone receptor (Homo sapiens) (UniProt P34981). Put plainly: qHTS assay to identify small molecule antagonists of the thyrotropin-releasing hormone receptor (TRHR) signaling pathway (AID 1346877; active means well fitted inhibition curve with a large enough effect in the repeat runs, not every such curve was filed as active; further: potency means the concentration at half of the fitted maximal effect).
For experiment [9] the target is unchanged. Put plainly: qHTS assay to identify small molecule agonists of the thyrotropin-releasing hormone receptor (TRHR) signaling pathway (AID 1346891; calls by dose curve;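 further: HEK293 cells expressing TRHR with calcium dye readout; on the % scale 0 is the no-effect control and ±100 the full control effect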). The settings on record: TRHR-HEK293 calcium fluorescence, agonist mode; at 57.6 µM (top of the series) unless noted.
A short description of experiment [10]: Human pregnane X receptor (PXR) small molecule agonists, qHTS cell viability counter screen (AID 1346977). Further: on the % scale 0 is the no-effect control and ±100 the full control effect; nearly all actives have a fitted effect of over 50% in size. The procedure, abridged: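 Tox21 qHTS format; PXR-Luc HepG2, 2,000/well, charcoal-stripped FBS 5%. Cpd exposure 24hr. Read: CellTiter-Fluor fluorescence, multiplexed with luciferase.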
Experiment [11] in a line: Caspase-3/7 induction in CHO-K1 cells by small molecules, qHTS cell viability counter screen (AID 1346979). Further: on the % scale 0 is the no-effect control and ±100 the full control effect; nearly all actives have a fitted effect of over 35% in size. The procedure, abridged:
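CellTiter-Fluor viability check, qHTS format: wild-type CHO-K1, 16hr compound treatment, 1hr reagent incubation, fluorescence read.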

Experiment [12] in a line: Caspase-3/7 induction in CHO-K1 cells by small molecules, qHTS assay (AID 1346980). Further: on the % scale 0 is the no-effect control and ±100 the full control effect; nearly all actives have a fitted effect of over 15% in size. To be noted: CHO-K1 caspase-3/7 induction, Caspase-Glo luminescence, 17 h; at 92.4 µM (top of the series) unless noted. An outline of the steps: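 Wild-type cells were seeded at 1,500 per well and settled 5 hr at 37 C, 5% CO2, then exposed to DMSO-dissolved compounds for 17 hr. Caspase-Glo 3/7 reagent was added, and luminescence was read after 30min at room temperature.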

Experiment [13] is described as follows: Caspase-3/7 induction in HepG2 cells by small molecules, qHTS cell viability counter screen (AID 1346981). Further: on the % scale 0 is the no-effect control and ±100 the full control effect; nearly all actives have a fitted effect of over 30% in size. An outline of the steps: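 Wild-type HepG2 cells (2,000/well) were allowed to settle for 5 hr at 37 C, 5% CO2, then dosed with compounds in DMSO by pin transfer. After 16 hr at 37 C, CellTiter-Fluor was added and fluorescence read 1 hr later.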
In experiment [14] the target is Nuclear receptor subfamily 1 group I member 2 (Homo sapiens) (UniProt O75469). Put plainly: Human pregnane X receptor (PXR) small molecule agonists, qHTS assay (AID 1346982). Further: on the % scale 0 is the no-effect control and ±100 the full control effect; nearly all actives have a fitted effect of over 35% in size. The procedure, abridged: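 PXR-Luc HepG2 cells (CYP3A4 promoter-driven luciferase) were seeded in medium with 5% charcoal-stripped FBS, left 5 hr at 37 C, then exposed to compounds in DMSO for 24 hr. Luminescence was read after ONE-Glo addition.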

The target of experiment [15] is Acetylcholinesterase (Homo sapiens) (UniProt P22303). Put plainly: Acetylcholinesterase (AChE) small molecule antagonists: fluorescence cell-based qHTS assay (AID 1347398; calls by dose curve; further: nearly all actives have a fitted effect of over 50% in size; further: potency means the concentration at half of the fitted maximal effect). The settings on record: Potency: AChE activity. An outline of the steps:
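Human SH-SY5Y cells were plated overnight at 37 C, exposed to compound for 30 min at 37 C, 5% CO2, then given acetylthiocholine plus Thiolite Green for 40 min at room temperature; thiocholine fluorescence (Ex/Em 490/520 nm) reports endogenous AChE activity.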

Experiment [16] addresses Cytochrome P450 2C19 (Homo sapiens) (UniProt P33261). Put plainly: Cytochrome P450 Family 2 Subfamily C Member 19 (CYP2C19) small molecule antagonists: luciferase reporter qHTS assay (AID 1671197). Further: potency means the concentration at half of the fitted maximal effect; nearly all actives have a fitted effect of over 65% in size. An outline of the steps:
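P450-Glo CYP2C19 screening system; proluciferin substrate; DMSO compound stocks; 10 min RT preincubation; NADPH regeneration, 1 h at 37C; luciferin detection reagent, 20 min RT; luminescence as RLU.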
For orientation: A reporter such as luciferase makes a cellular process visible.

Experiment [17] has as its target Cytochrome P450 2C9 (Homo sapiens) (UniProt P11712). In words: Cytochrome P450 Family 2 Subfamily C Member 9 (CYP2C9) small molecule antagonists: luciferase reporter qHTS assay (AID 1671198). Further: nearly all actives have a fitted effect of over 50% in size. Further: potency means the concentration at half of the fitted maximal effect. An outline of the steps: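 CYP2C9 activity was measured with a P450-Glo proluciferin substrate. Enzyme–substrate mix was held with compound for 10 min at room temperature, then NADPH regeneration solution was added for 1 h at 37C. Luciferin product was read as luminescence.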

The target of experiment [18] is Cytochrome P450 1A2 (Homo sapiens) (UniProt P05177). In words: Cytochrome P450 Family 1 Subfamily A Member 2 (CYP1A2) small molecule antagonists: luciferase reporter qHTS assay (AID 1671199). Further: nearly all actives have a fitted effect of over 50% in size. Further: potency means the concentration at half of the fitted maximal effect.
For experiment [19], the target named is Voltage-gated inwardly rectifying potassium channel KCNH2 (Homo sapiens) (UniProt Q12809). In words: Human Ether-a-go-go-Related Gene (hERG) channel small molecule antagonists: fluorescence cell-based qHTS assay (AID 1671200). An outline of the steps: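 Kinetic two-minute fluorescence traces, sampled at 1 s, were collected following thallium stimulus of U2OS cells (1000 per well) that had been cultured overnight at 37 C and loaded with FluxOR II.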
For orientation: Block of hERG is tested as a sign of cardiac risk.

Experiment [20] has as its target Acetylcholinesterase (Homo sapiens) (UniProt P22303). Put plainly: Acetylcholinesterase (AChE) small molecule antagonists: colormetric cell-based qHTS assay (AID 1347395; calls by dose curve; further: on the % scale 0 is the no-effect control and ±100 the full control effect; nearly all actives have a fitted effect of over 30% in size). An outline of the steps:
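AChE inhibition read colorimetrically via DTNB–thiocholine in SH-SY5Y cells. Compound 30 min, substrate 90 min, both 37 C.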

Each structure is given as a SMILES string. Where “and” joins values, the source holds several entries; their conditions need not be identical. Equal entries are not always repeated. Only a part is listed here, and it is no random draw. Results filed as inconclusive are left out. Calls of active or inactive are those of the source. Unless noted, the call rests on the fitted dose curve; in most records, active means well fitted curve in the direction sought with a large enough effect in the repeat runs; inconclusive means weak or mixed curves; inactive means no such curve, though single readings can be large; an effect the other way counts as inactive or inconclusive.

On to `CCCCOP(OCCCC)OCCCC`, for which the Potency entry in experiment [1], in experiment [2], in experiment [3], in [4], in experiment [5] and in experiment [6] was “inactive” in each case. For the same compound, the Potency entry in experiment [8], in [10], in experiment [11], in [13], in [14] and in experiment [19] was “inactive” throughout. Moreover, the activation in experiment [7] is inactive: -0.837%; in [9], inactive: -0.0674%. Besides, the caspase-3/7 activation in experiment [12] is inactive: -0.0335%. Besides, the Potency in experiment [15] was active: 35.6 µM; in [16] it was active: 10 µM; in [17] it was active: 39.9 µM; in experiment [18] it was active: 35.6 µM.

For the compound `O=P(Cl)(Oc1ccccc1)Oc1ccccc1`, the Potency result in experiment [1], in [2], in [3], in experiment [4], in [5] and in [6] was “inactive” throughout. In addition, the Potency result in experiment [8], in [11], in experiment [13], in experiment [14], in experiment [20] and in [15] was “inactive” throughout. Besides, the Potency result in [18] and in experiment [19] was “inactive” in each case. In addition, the activation in [7] was inactive: -0.0815%; in experiment [9], inactive: -0.407%. Further, the caspase-3/7 activation in [12] is inactive: 0.37%. Further, the Potency in [16] is active: 71 µM; in experiment [17] it was active: 39.9 µM.

For `CCCCC(CC)CO[P+](=O)OCC(CC)CCCC` (configuration not stated), the Potency entry in experiment [1], in experiment [2], in experiment [3], in [4], in experiment [5] and in experiment [6] was “inactive” throughout. In addition, the Potency result in experiment [8], in [10], in [11], in experiment [13], in [14] and in experiment [20] was “inactive” throughout. For the same compound, the Potency result in experiment [15], in [18] and in experiment [19] was “inactive” throughout. Besides, the activation in [7] is inactive: 1.09%; in experiment [9], inactive: -0.189%. Moreover, the caspase-3/7 activation in [12] is inactive: -0.731%. The Potency in [16] was active: 56.4 µM.

As to `O=C(Cl)OCCOC(=O)Cl`, the Potency entry in [1], in [2], in [3], in [4], in [5] and in experiment [6] was “inactive” in each case. In addition, the Potency result in experiment [8], in experiment [10], in experiment [11], in [13], in experiment [14] and in [19] was “inactive” in each case. Also, the activation in experiment [7] is inactive: 1.14%; in [9], inactive: -0.523%. Further, the caspase-3/7 activation in experiment [12] is inactive: 0.483%.

Turning to `O=[p+]1oc2ccccc2c2ccccc21` (configuration not stated), the Potency entry in experiment [1], in experiment [2], in [3], in [4], in [5] and in experiment [6] was “inactive” each time. For the same compound, the Potency entry in experiment [8], in experiment [10], in [13], in experiment [14], in experiment [20] and in [15] was “inactive” throughout. In addition, the Potency result in [18] and in [19] was “inactive” in each case. The figures for the activation in experiment [7] and in experiment [9] were inactive: 0.0437% and inactive: -0.111%, respectively. Also, the caspase-3/7 activation in experiment [12] was inactive: 1.29%.

Consider `ClP(Cl)c1ccccc1`, for which the Potency result in experiment [1], in experiment [2], in [3], in experiment [4], in experiment [5] and in [6] was “inactive” in each case. Further, the Potency result in experiment [8], in [10], in [11], in [13], in [14] and in [20] was “inactive” in each case. The Potency entry in [15], in [17], in [18] and in experiment [19] was “inactive” throughout. The values for the activation in experiment [7] and in experiment [9] were inactive: -1.46% and inactive: -0.341%, respectively. Further, in [12], the caspase-3/7 activation is inactive: 1.64%.

Consider `O=C1C2CC=CCC2C(=O)N1SC(Cl)(Cl)C(Cl)Cl` (configuration not stated), for which the activation in experiment [7] is inactive: -7.16% and inactive: -6.52%; in [9], inactive: 14.4% and inactive: 19.9%. Further, the Potency in [8] was active: 13.5 µM. Further, in experiment [14], the Potency entry is “inactive”.
